Test results published in US20260250318A1, “COMPOSITIONS AND METHODS FOR CROSSING THE BLOOD BRAIN BARRIER” (VOYAGER THERAPEUTICS, INC., priority 2022, published 2026).

Target: T1, ALPL (Homo sapiens, UniProt P05186)
T1 sequence (P05186 18-501): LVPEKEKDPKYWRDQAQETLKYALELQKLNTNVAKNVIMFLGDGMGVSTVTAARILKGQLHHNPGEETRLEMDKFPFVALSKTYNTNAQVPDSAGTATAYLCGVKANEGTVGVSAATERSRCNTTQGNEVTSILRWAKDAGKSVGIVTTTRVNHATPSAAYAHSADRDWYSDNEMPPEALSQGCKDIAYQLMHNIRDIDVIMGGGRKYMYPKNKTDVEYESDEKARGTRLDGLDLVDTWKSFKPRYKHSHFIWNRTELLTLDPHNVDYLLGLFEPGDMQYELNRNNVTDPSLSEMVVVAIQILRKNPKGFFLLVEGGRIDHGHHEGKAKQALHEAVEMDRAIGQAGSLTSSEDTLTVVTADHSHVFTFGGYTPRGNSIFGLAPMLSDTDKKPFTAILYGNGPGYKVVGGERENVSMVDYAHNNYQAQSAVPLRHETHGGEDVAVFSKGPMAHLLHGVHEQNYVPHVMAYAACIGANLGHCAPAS
Test: Inhibition of TTM-002 transduction by small molecule ALPL inhibitors in HeLa cells expressing ALPL
Type: cell-based
Set-up: endogenous in cells; host or cells: HeLa
Conditions: increasing inhibitor concentrations vs vehicle control

For COc1ccc(OC)c(S(=O)(=O)Nc2cnc3ccccc3c2)c1 [TNAPi, 2,5-Dimethoxy-N-(quinolin-3-yl)benzenesulfonamide], the “effect on TTM-002 transduction” value was “significantly decreased TTM-002 transduction”.
